Our source for the fold change (FC) values is ChEMBL document CHEMBL4118117, “Synthesis, biological evaluation, and molecular docking investigation of benzhydrol- and indole-based dual PPAR-γ/FFAR1 agonists” (Bioorg Med Chem Lett, 2018).

By UniProt entry, the sequences of proteins in these tests, tags left out. Where a name states a change or a piece, a line headed by the entry shows the natural chain unless it says otherwise.
UniProt P37231: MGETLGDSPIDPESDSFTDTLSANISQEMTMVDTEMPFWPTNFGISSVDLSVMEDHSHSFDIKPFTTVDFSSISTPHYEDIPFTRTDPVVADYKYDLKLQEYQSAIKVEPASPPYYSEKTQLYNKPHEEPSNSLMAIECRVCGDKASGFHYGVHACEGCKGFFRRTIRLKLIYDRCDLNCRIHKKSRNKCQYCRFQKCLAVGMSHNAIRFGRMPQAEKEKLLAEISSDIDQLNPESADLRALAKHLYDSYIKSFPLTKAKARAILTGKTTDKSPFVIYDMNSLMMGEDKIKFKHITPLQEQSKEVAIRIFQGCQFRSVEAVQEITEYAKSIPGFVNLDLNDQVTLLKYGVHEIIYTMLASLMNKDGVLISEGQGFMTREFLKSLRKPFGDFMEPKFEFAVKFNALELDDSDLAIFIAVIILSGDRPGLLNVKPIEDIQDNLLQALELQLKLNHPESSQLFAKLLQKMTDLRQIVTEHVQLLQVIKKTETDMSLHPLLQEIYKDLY

The test has as its target Peroxisome proliferator-activated receptor gamma (Homo sapiens, UniProt P37231). Description: Transactivation of recombinant human N-terminal GAL4-DBD fused PPARgamma LBD expressed in reporter cells at 30 uM measured after 24 hrs by luciferase reporter gene assay relative to control. It counts as cell-based.
Take `O=C1NC(=O)C(Cc2ccc(OCCOC(c3ccccc3)c3ccc(Cl)cc3)cc2)S1` (configuration not stated): the fold change (FC) amounted to 4.6. The figure for `O=C1NC(=O)C(Cc2ccc(OCCn3ccc4ccc(Cl)cc43)cc2)S1` (configuration not stated) is 36.2.

In the case of `O=C1NC(=O)C(Cc2ccc(OCCOc3cccc4ccccc34)cc2)S1` (configuration not stated), the fold change (FC) is 5.7. Under `Cc1ccccc1C(OCCOc1ccc(CC2SC(=O)NC2=O)cc1)c1ccccc1` (configuration not stated) stands 1.9; under `O=C1NC(=O)C(Cc2ccc(OCCn3c(-c4ccccc4)cc4ccccc43)cc2)S1` (configuration not stated), 15.1. Consider `COc1ccc(C(OCCOc2ccc(CC3SC(=O)NC3=O)cc2)c2ccccc2)cc1` (configuration not stated), for which the fold change (FC) is 5.2. For `O=C1NC(=O)C(Cc2ccc(OCCn3c(CO)nc4ccccc43)cc2)S1` (configuration not stated), the fold change (FC) worked out at 17.1.
